Patent publication US20220378747A1, “TOPICAL COMPOSITION FOR TREATING SKIN WOUNDS” (priority 2021, published 2022)

Assay: 0.1M Zinc Gluconate and 0.1M Amino Acid Solutions: pH and precipitation on adjusting pH to 7.0
Details: pH adjusted to 7.0 with NaOH

N[C@@H](Cc1ccc(O)cc1)C(=O)O [Tyrosine]
Observations: Not soluble
